From patent publication US20260382749A1, “BENZAZEPINE DERIVATIVE, CONJUGATE CONTAINING SAME, AND USE THEREOF” (published 2026)

By UniProt entry, the sequences of proteins in these tests, tags left out. Residues count along the entry.
UniProt Q9NR97, 27-1041 limits assumed: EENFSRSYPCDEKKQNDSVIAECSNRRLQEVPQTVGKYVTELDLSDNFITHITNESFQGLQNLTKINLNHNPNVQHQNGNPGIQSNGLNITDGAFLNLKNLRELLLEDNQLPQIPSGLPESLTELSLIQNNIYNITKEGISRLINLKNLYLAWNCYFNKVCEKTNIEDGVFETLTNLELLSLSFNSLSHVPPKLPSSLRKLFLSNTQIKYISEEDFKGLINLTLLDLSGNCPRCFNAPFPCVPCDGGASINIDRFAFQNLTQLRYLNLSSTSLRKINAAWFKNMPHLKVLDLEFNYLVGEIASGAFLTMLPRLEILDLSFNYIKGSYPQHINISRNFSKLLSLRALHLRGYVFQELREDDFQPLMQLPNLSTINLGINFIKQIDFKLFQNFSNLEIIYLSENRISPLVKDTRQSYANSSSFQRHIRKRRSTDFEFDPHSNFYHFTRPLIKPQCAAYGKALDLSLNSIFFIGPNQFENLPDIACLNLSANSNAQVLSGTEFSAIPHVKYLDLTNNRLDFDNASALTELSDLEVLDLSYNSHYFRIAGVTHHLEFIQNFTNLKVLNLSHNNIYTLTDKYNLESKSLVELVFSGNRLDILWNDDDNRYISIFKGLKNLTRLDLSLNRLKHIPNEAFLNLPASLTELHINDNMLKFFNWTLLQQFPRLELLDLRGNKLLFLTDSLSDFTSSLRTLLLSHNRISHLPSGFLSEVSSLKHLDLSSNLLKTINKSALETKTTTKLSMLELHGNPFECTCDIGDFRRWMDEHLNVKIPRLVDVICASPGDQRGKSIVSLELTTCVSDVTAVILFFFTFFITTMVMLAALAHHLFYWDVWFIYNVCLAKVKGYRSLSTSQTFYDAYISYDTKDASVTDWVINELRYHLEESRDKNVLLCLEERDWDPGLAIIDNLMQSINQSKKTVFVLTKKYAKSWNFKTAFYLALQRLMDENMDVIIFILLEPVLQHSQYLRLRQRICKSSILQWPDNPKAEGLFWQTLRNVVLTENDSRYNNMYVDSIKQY
UniProt Q9NYK1, 27-1049 limits assumed: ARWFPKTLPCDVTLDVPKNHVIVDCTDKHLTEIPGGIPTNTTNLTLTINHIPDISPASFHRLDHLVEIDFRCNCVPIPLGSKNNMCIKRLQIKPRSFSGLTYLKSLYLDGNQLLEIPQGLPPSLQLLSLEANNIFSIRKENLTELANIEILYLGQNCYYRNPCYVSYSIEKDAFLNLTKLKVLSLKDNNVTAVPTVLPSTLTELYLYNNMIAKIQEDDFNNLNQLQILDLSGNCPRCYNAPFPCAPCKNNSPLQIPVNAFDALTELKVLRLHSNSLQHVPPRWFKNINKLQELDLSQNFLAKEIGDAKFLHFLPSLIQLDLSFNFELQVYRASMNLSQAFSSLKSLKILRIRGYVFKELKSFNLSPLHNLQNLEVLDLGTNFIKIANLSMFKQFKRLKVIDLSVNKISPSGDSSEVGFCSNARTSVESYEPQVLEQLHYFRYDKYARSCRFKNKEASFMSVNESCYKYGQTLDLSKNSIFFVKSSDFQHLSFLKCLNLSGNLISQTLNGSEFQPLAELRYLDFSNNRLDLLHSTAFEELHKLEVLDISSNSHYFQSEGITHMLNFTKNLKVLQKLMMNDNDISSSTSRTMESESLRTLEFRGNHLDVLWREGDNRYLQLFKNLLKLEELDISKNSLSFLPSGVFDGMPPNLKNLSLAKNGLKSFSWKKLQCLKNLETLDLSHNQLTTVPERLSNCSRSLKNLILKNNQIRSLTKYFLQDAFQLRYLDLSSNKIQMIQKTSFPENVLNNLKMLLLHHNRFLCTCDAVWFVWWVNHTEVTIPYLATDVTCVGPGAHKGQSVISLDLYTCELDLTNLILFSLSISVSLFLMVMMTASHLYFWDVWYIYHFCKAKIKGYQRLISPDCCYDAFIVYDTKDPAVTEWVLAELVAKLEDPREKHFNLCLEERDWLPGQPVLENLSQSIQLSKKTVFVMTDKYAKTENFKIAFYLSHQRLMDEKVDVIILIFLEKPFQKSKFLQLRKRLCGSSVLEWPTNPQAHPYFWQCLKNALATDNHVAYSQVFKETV

What was measured:
[1] = molecular target: TLR8 (Homo sapiens, UniProt Q9NR97); test: HEK-BLUE-hTLR8 cell SEAP reporter agonist assay (Quanti-Blue); settings: read-out: TLR8 EC50; HEK-BLUE-hTLR8 cells, 24 hours
[2] = molecular target: TLR7 (Homo sapiens, UniProt Q9NYK1); test: HEK-BLUE-hTLR7 cell SEAP reporter agonist assay (Quanti-Blue); settings: read-out: TLR7 EC50; HEK-BLUE-hTLR7 cells, 24 hours
[3] = test system: MC38-HER2 mouse colon cancer cells; test: In vivo efficacy in the mouse subcutaneous xenograft model of MC38-HER2 mouse colon cancer cells (tumor volume); settings: day 20, B6-hTLR8-HO mice
[4] = test system: MDAMB175VII/hPBMC; test: System 2: TNFα secretion, MDA-MB-175VII/hPBMC co-culture; settings: read-out: TNFα (MDAMB175VII/hPBMC) EC50; system 2, MDAMB175VII/hPBMC, 20 hours
[5] = test system: NUGC-4/hPBMC; test: System 2: TNFα secretion, NUGC-4/hPBMC co-culture; settings: system 2, NUGC-4/hPBMC, 20 hours
[6] = test system: MDA-MB-468/hPBMC; test: System 2: TNFα secretion, MDA-MB-468/hPBMC co-culture; settings: system 2, MDA-MB-468/hPBMC, 20 hours

“2-amino-6-fluoro-N-(2-hydroxyethyl)-N-propyl-8-(1-((5,6,7,8-tetrahydro-1,6-naphthyridin-3-yl)carbamoyl)cyclopropyl)-3H-benzo[b]azepine-4-formamide” was tested, and the EC50 [1] was 0.25 to 1 µM and the EC50 [2] was over 2 µM.

Work on Trastuzumab yielded a Tumor volume ([3]; Vehicle 2039.7 ± 331.0) of 1100.4 ± 311.3 mm^3 and a T/C ([3]; vs Vehicle) of 53.9%.

For Labetuzumab, the EC50 [4] was over 0.1 µM.

“2-amino-8-(1-((6-(1-(2,5-dioxo-2,5-dihydro-1H-pyrrol-1-yl)-2,12-dioxo-6,9-dioxa-3,13-diazapentadecan-15-acyl)-5,6,7,8-tetrahydro-1,6-naphthyridin-3-yl)carbamoyl)cyclopropyl)-N-(2-hydroxyethyl)-N-propyl-3H-benzo[b]azepine-4-formamide” was tested, and the EC50 [1] was under 0.25 µM.

“(S)-2-amino-8-(1-((6-(5-benzyl-18-(2,5-dioxo-2,5-dihydro-1H-pyrrol-1-yl)-4,7,10,13-tetraoxo-3,6,9,12-tetraoxaoctadecan-1-yl)-5,6,7,8-tetrahydro-1,6-naphthyridin-3-yl)carbamoyl)cyclopropyl)-N-(2-hydroxyethyl)-N-propyl-3H-benzo[b]azepine-4-formamide” gave an EC50 [1] of 0.25 to 1 µM.

For Enfortumab, the EC50 [4] was over 0.1 µM.

“(2S,3S,4S,5R,6S)-6-(4-(((3-(1-(2-amino-4-((2-hydroxyethyl)(propyl)carbamoyl)-3H-benzo[b]azepin-8-yl)cyclopropyl-1-formylamino)-5,6,7,8-tetrahydro-1,6-naphthyridine-6-carbonyl)oxy)methyl)-2-(2-(6-(2,5-dioxo-2,5-dihydro-1H-pyrrol-1-yl)hexanoylamino)acetylamino)phenoxy)-3,45-trihydroxytetrahydro-2H-pyran-2-carboxylic acid” was tested, and the EC50 [1] was under 0.25 µM.

Zolbetuximab was tested, and the “TNFα (NUGC-4/hPBMC) (100 nM, pg/mL)” value [5] was 261 pg/mL.

For Cetuximab, the “TNFα (MDA-MB-468/hPBMC) (100 nM, pg/mL)” value [6] was 345 pg/mL.

“2-amino-8-(1-((6-(2-((2,5-dioxo-2,5-dihydro-1H-pyrrol-1-yl)methyl)-1,3-dioxan-5-carbonyl)-5,6,7,8-tetrahydro-1,6-naphthyridin-3-yl)carbamoyl)cyclopropyl)-N-(2-hydroxyethyl)-N-propyl-3H-benzo[b]azepine-4-formamide, isomer 2” gave an EC50 [1] of 0.25 to 1 µM.

With “2-amino-N^4-(2-hydroxyethyl)-N^4-propyl-N^8-(5,6,7,8-tetrahydro-1,6-naphthyridin-3-yl)-3H-benzo[b]azepine-4 8-diacetamide” the EC50 [1] was 0.25 to 1 µM and the EC50 [2] was over 2 µM.

“2-amino-8-(1-((6-(1-(2,5-dioxo-2,5-dihydro-1H-pyrrol-1-yl)-3-oxo-7,10,13,16,19,22-hexaoxa-4-azapentacosan-25-acyl)-5,6,7,8-tetrahydro-1,6-naphthyridin-3-yl)carbamoyl)cyclopropyl)-N-(2-hydroxyethyl)-N-propyl-3H-benzo[b]azepine-4-formamide” gave an EC50 [1] of 0.25 to 1 µM.
